Literature values as cited in patent publication US20210239702A1, “METHODS FOR PREDICTING RESPONSIVENESS OF LUNG CANCER PATIENTS TO HER2-TARGETING THERAPIES” (MEMORIAL SLOAN KETTERING CANCER CENTER, priority 2018, published 2021).

Tested on: HER2 IHC positive lung cancers
Conditions: six phase 2 trials; cited from earlier work

trastuzumab: HER2-targeting antibody
results of trials: uniformly negative
